Laboratory results reported in ChEMBL document CHEMBL1148376, “Synthesis, monoamine transporter binding properties, and behavioral pharmacology of a series of 3beta-(substituted phenyl)-2beta-(3'-substituted isoxazol-5-yl)tropanes” (J Med Chem, 2004).

Amino acid sequences for entries named in this document (tags omitted).
UniProt P31652, whole entry: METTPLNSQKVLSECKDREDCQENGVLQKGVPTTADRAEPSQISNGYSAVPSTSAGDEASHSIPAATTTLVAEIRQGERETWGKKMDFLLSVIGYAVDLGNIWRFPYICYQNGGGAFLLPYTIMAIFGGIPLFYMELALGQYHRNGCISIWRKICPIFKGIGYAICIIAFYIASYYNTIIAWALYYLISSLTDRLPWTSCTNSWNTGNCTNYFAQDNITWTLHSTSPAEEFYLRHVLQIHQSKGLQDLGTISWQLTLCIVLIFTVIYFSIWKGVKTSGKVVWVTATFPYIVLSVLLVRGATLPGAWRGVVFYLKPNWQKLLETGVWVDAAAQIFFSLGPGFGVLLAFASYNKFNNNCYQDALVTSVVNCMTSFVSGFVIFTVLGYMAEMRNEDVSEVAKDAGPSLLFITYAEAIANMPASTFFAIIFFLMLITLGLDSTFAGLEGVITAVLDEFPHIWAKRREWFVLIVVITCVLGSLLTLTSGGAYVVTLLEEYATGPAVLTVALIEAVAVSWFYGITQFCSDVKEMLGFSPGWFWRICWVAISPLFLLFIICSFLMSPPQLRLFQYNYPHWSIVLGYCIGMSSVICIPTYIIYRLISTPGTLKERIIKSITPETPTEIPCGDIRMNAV

Biological target: Sodium-dependent serotonin transporter (Rattus norvegicus, UniProt P31652)
Test: Binding affinity towards serotonin transporter 5-HTT was determined using [3H]paroxetine radioligand.
Procedure, shortened: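 Competition binding at the 5-HTT with 0.2 nM [3H]paroxetine (final concentration). Other procedures follow earlier published methods.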

Row | SMILES | Ki
1 | COC(=O)[C@@H]1C2CC[C@@H](C[C@@H]1OC(=O)c1ccccc1)N2C (single isomer, unassigned) [COCAINE] | 45 nM
2 | COC(=O)[C@@H]1C2CC[C@H](C[C@@H]1c1ccccc1)N2C | 182 nM
